# Source: article PMC9511493, “2-(Fluoromethoxy)-4′-(S-methanesulfonimidoyl)-1,1′-biphenyl (UCM-1306), an Orally Bioavailable Positive Allosteric Modulator of the Human Dopamine D1 Receptor for Parkinson’s Disease” (Journal of Medicinal Chemistry, 2022)
# Amino acid sequences for entries named in this document (tags omitted). A change or cut given only in a name is not applied to a line headed by its entry.
# UniProt P21728, whole entry: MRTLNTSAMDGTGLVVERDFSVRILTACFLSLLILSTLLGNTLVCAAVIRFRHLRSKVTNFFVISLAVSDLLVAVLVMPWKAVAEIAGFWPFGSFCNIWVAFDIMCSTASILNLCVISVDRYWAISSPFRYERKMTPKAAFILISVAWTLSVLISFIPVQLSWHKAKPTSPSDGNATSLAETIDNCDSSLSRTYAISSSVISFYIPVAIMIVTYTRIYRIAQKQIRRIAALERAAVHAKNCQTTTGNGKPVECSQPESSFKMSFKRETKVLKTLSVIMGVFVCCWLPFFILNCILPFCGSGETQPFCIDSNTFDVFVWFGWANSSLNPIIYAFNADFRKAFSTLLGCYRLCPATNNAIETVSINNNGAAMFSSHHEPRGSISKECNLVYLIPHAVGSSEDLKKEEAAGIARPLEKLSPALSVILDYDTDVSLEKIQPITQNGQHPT
# Assays:
# [1] = biological target: T1, human D1R (Homo sapiens, UniProt P21728); experiment: potentiator-mode cAMP assay (HTRF) in SK-N-MC neuroblastoma cells endogenously expressing human D1R; format: cell-based; conditions: concentration–response curve of the compound over DA EC70
# T1 construct: endogenously expressed human D1R in the SK-N-MC cell line (ATCC); host or cells: SK-N-MC human neuroblastoma cells
# Method: An in-house chemical library of 250 compounds was screened using an in vitro assay measuring accumulation of cAMP in a human neuroblastoma SK-N-MC cell line stably expressing physiological levels of the D1R but not the D5R.[41] To assess allosteric modulation of the D1R, cells were treated with a fixed concentration of the test compounds (10 μM) for 15 min and then co-incubated with increasing concentrations of the endogenous agonist DA. The cAMP concentration was quantified by homogeneous time-resolved fluorescence energy transfer (HTRF) and the effect of each compound on the DA concentration–response curve was measured. […]
# Potential PAM activities of synthesized compounds 1–10 were tested in the potentiator-mode cAMP production assay, and the results of D1R activation are summarized in Table 1. […] The PAM efficacy was measured as the percentage of increase over DA EC70 and the potency as the EC50 observed in the concentration–response curve. […]
# Functional studies at human D1 and D2 receptors were carried out in endogenously expressed human D1R in the SK-N-MC cell line (ATCC), and recombinant human D2R stably transfected in an in-house CHO cell line. […] Next, treated cells were lysed (for the D2R assay, cells were previously treated with 10 μM forskolin for 5 min at 37 °C) and the cAMP concentration was measured by HTRF, using a kit from Cisbio. […]
# [2] = biological target: T2, human dopamine D1R (Homo sapiens, UniProt P21728); experiment: radioligand binding assay with [3H]SCH23390 at human D1R membranes; conditions: in the presence of 4 μM DA
# T2 construct: purchased Perkin Elmer
# Method: Binding assays were carried out by using plasma membranes (12 μg/well) expressing human dopamine D1R (Perkin Elmer). […] After this time, the well content was filtered through a Millipore manifold and membranes were washed four times with assay buffer. The plate was dried and radioactivity was measured in a Microbeta Trilux liquid scintillation reader (Perkin Elmer). Non-specific binding was determined in the presence of 1 μM (+)-butaclamol. Data were normalized to the percentage of specific binding and fitted to a 4-parameter logistic equation using with Prism v2.1 software (GraphPad Inc). For the calculation of the affinity ratio of DA in the presence of the allosteric modulators, data were fitted according to the equations reported by Lazareno and Birdsall.[44]
smiles,measurement,setting,value
"O=Cc1ccc(-c2ccccc2OCF)cc1 [Compound 3, 2′-(Fluoromethoxy)[1,1′-biphenyl]-4-carbaldehyde]",Emax,"[1]; SK-N-MC, read-out: % maximum increase (efficacy over DA EC70)",91%
same,% maximum increase (efficacy over DA EC70),[1],91 ± 6%
same,affinity ratio of [3H]SCH-23390,[2],concentration-dependent effect of compound 3 by increasing the affinity ratio values
